Measurements reported in PubChem BioAssay AID651647 (Sanford-Burnham Center for Chemical Genomics, 2012).
The list shows a part of the results, in another mix than the full data. Active and inactive are the calls of the source.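 Rule for the calls: active = GFP/RFP ratio change of at least 30% with cell ATP level not reduced by more than half and red fluorescence within 50% of control; inactive = the rest, inconclusive results apart.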

These compounds were tested against Matrix metalloproteinase-14 (Homo sapiens) (UniProt P50281) (assay: MT1-MMP activation inhibitors, cellular reporter – HT1080 RFP-PRO-GFP cells, GFP/RFP fluorescence, primary screen (AID 651647)). Conditions: overnight, at 20 µM, stronger effect = higher value, percent of plate control window, DMSO zero.
Procedure, shortened: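 Assay system: HT1080 cells carrying an RFP-PRO-GFP reporter | Dosing: Single dose of 20 µM compound, 1% DMSO final | Incubation: Cells overnight before dosing, compound overnight, 37 °C, 5% CO2 | Evaluation: GFP/RFP fluorescence ratio | Control set: DMSO and RFP-L50D-GFP cell wells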
With `O=C(NCC1(N2CCCCC2)CCCCC1)c1cncc(Br)c1` the GFP/RFP ratio change was inactive: -1.87%.
For `CN1CCC(Nc2cccc(F)c2)CC1`, the GFP/RFP ratio change was inactive: 0.176%.
`Cc1cccc(NC2(C#N)CCN(Cc3ccccc3)CC2)c1` was tested, and the GFP/RFP ratio change was inactive: -0.542%.
`CSc1ccccc1C(=O)NCC1(N2CCCCC2)CCCCC1` was tested, and the GFP/RFP ratio change was inactive: -1.12%.
For `CCC(c1nnnn1C1CCCC1)N1CCC(n2c(=O)[nH]c3ccccc32)CC1` (configuration not stated), the GFP/RFP ratio change was inactive: 2.45%.
`COc1ccc(C(=O)NCC2(N3CCCCC3)CCCCC2)c(OC)c1OC` was tested, and the GFP/RFP ratio change was inactive: 0.404%.
In the case of `CC(C)(C)OC(=O)N1CCC(N(C(=O)c2ccccc2)c2ccc(F)cc2)CC1`, the GFP/RFP ratio change is reported as inactive: -0.243%.
For `COc1ccc(C(=O)NCC2(N3CCCCC3)CCCCC2)cc1`, the GFP/RFP ratio change was inactive: 0.835%.
In the case of `CCCCn1nnnc1C(c1cccs1)N1CCC(n2c(=O)[nH]c3ccccc32)CC1` (configuration not stated), the GFP/RFP ratio change is reported as inactive: 8.27%.
With `CCCCn1nnnc1C(CC)N1CCC(n2c(=O)[nH]c3ccccc32)CC1` (configuration not stated) the GFP/RFP ratio change was inactive: -1.69%.
For `O=C(NCC1(N2CCCCC2)CCCCC1)c1cccs1`, the GFP/RFP ratio change was inactive: 3.94%.
In the case of `O=C(NCC1(N2CCCCC2)CCCCC1)c1ccc(=O)[nH]c1`, the GFP/RFP ratio change is reported as inactive: -3.78%.
`COc1ccc(Cl)cc1C(=O)NCC1(N2CCOCC2)CCCCC1` was tested, and the GFP/RFP ratio change was inactive: 0.946%.
With `O=C(OC1CN2CCC1CC2)C1c2ccccc2Oc2ccccc21` (configuration not stated) the GFP/RFP ratio change was inactive: -25.1%.
In the case of `O=c1[nH]c2ccccc2n1C1CCN(C(c2cc3ccccc3o2)c2nnnn2C2CCCCC2)CC1` (configuration not stated), the GFP/RFP ratio change is reported as inactive: -9.14%.
With `N#CC1(Nc2ccccc2)CCN(Cc2ccccc2)CC1` the GFP/RFP ratio change was inactive: 1.29%.
With `O=C(NCC1(N2CCCCC2)CCCCC1)c1ccc(Cl)s1` the GFP/RFP ratio change was inactive: -2.65%.
For `CCCCn1nnnc1C(c1ccc(OC)cc1)N1CCC(n2c(=O)[nH]c3ccccc32)CC1` (configuration not stated), the GFP/RFP ratio change was inactive: -0.71%.
`CCOC(=O)N1CCC(Nc2ccc(OC)cc2)CC1` was tested, and the GFP/RFP ratio change was inactive: -0.915%.
In the case of `Cc1cc(C)cc(N(C(=O)c2ccccc2)C2CCN(C(=O)OC(C)(C)C)CC2)c1`, the GFP/RFP ratio change is reported as inactive: -4.27%.
For `O=c1[nH]c2ccccc2n1C1CCN(C(c2ccccc2OC(F)(F)F)c2nnnn2C2CCCCC2)CC1` (configuration not stated), the GFP/RFP ratio change was inactive: 0.558%.
`O=C(NCC1(N2CCCCC2)CCCCC1)c1ccc(Cl)nc1` was tested, and the GFP/RFP ratio change was inactive: -0.0698%.
For `O=C(NCC1(N2CCOCC2)CCCCC1)c1cc2ccccc2o1`, the GFP/RFP ratio change was inactive: 0.929%.
In the case of `COc1ccc(NC2CCN(CCc3ccccc3)CC2)c(OC)c1`, the GFP/RFP ratio change is reported as inactive: 5.54%.
`CCOC(=O)N1CCC(Nc2ccc(F)cc2)CC1` was tested, and the GFP/RFP ratio change was inactive: 3.07%.
In the case of `O=C(NCC1(N2CCCCC2)CCCCC1)c1ccc(F)cc1`, the GFP/RFP ratio change is reported as inactive: -5.76%.
For `O=P1(N(CCCl)CCCl)SCCCS1`, the GFP/RFP ratio change was inactive: 0.524%.
In the case of `CCCCn1nnnc1C(c1cc2ccccc2o1)N1CCC(n2c(=O)[nH]c3ccccc32)CC1` (configuration not stated), the GFP/RFP ratio change is reported as inactive: 4.39%.
For `CCCCOc1ccc(C(=O)NCC2(N3CCOCC3)CCCCC2)cc1`, the GFP/RFP ratio change was inactive: 4.69%.
`O=C1CCN(Cc2ccccc2)CC1` was tested, and the GFP/RFP ratio change was inactive: -1.48%.
With `CC(C)(C)n1nnnc1C(c1ccccc1)N1CCC(n2c(=O)[nH]c3ccccc32)CC1` (configuration not stated) the GFP/RFP ratio change was inactive: -0.931%.
With `CCOc1ccc(C)cc1CN(CCCl)CCCl` the GFP/RFP ratio change was inactive: -0.382%.
With `COc1cc(C(=O)NCC2(N(C)C)CCCCC2)ccc1OC(F)F` the GFP/RFP ratio change was inactive: 1.87%.
`CCOC(=O)N1CCC(Nc2cccc(C)c2)CC1` was tested, and the GFP/RFP ratio change was inactive: 0.573%.
`O=c1[nH]c2ccccc2n1C1CCN(C(c2cccc3ccccc23)c2nnnn2C2CCCC2)CC1` (configuration not stated) was tested, and the GFP/RFP ratio change was inactive: -0.28%.
With `O=c1[nH]c2ccccc2n1C1CCN(C(c2ccccc2)c2nnnn2C2CCCCC2)CC1` (configuration not stated) the GFP/RFP ratio change was inactive: 1.67%.
With `Fc1ccccc1NC1CCN(Cc2ccccc2)CC1` the GFP/RFP ratio change was inactive: -1.99%.
In the case of `Cc1ccc(C(=O)NCC2(N3CCCCC3)CCCCC2)o1`, the GFP/RFP ratio change is reported as inactive: -0.861%.
With `Cc1ccc(NC2(C#N)CCN(Cc3ccccc3)CC2)cc1` the GFP/RFP ratio change was inactive: 0.768%.
In the case of `CCC(c1nnnn1C1CCCCC1)N1CCC(n2c(=O)[nH]c3ccccc32)CC1` (configuration not stated), the GFP/RFP ratio change is reported as inactive: -3.86%.
With `CC(=O)N(c1ccccc1)C1CCNCC1` the GFP/RFP ratio change was inactive: -4.79%.
`COc1cccc(C(c2nnnn2C2CCCCC2)N2CCC(n3c(=O)[nH]c4ccccc43)CC2)c1OC` (configuration not stated) was tested, and the GFP/RFP ratio change was inactive: -1.66%.
For `O=c1[nH]c2ccccc2n1C1CCN(C(c2ccnc3ccccc23)c2nnnn2C2CCCCC2)CC1` (configuration not stated), the GFP/RFP ratio change was inactive: 4.85%.
`COc1cc(OC)cc(C(=O)NCC2(N3CCCCC3)CCCCC2)c1` was tested, and the GFP/RFP ratio change was inactive: 2%.
For `Cn1c(=O)[nH]cc(N(CCCl)CCCl)c1=O`, the GFP/RFP ratio change was inactive: 2.45%.
In the case of `CN(C)c1ccc(C(=O)NCC2(N3CCCCC3)CCCCC2)cc1`, the GFP/RFP ratio change is reported as inactive: 5.09%.
For `O=C(NCC1(N2CCCCC2)CCCCC1)c1ccco1`, the GFP/RFP ratio change was inactive: 3.47%.
In the case of `CC(C)(C)n1nnnc1C(c1ccnc2ccccc12)N1CCC(n2c(=O)[nH]c3ccccc32)CC1` (configuration not stated), the GFP/RFP ratio change is reported as inactive: 1.76%.
With `COc1ccc(C(c2nnnn2C2CCCCC2)N2CCC(n3c(=O)[nH]c4ccccc43)CC2)cc1` (configuration not stated) the GFP/RFP ratio change was inactive: -2.92%.
`CCN1CCC(Nc2cccc(F)c2)CC1` was tested, and the GFP/RFP ratio change was inactive: -1.51%.
`Cc1ccccc1NC1(C#N)CCN(Cc2ccccc2)CC1` was tested, and the GFP/RFP ratio change was inactive: -1.23%.
For `O=C(O)C1(Nc2ccccc2)CCN(Cc2ccccc2)CC1`, the GFP/RFP ratio change was inactive: -2.7%.
`NN(c1ccccc1)C1CCN(CCc2ccccc2)CC1` was tested, and the GFP/RFP ratio change was inactive: 1.04%.
In the case of `CC(C)(C)OC(=O)N1CCC(Nc2ccccc2)CC1`, the GFP/RFP ratio change is reported as inactive: -1.54%.
`CCCOc1ccc(C(=O)NCC2(N(C)C)CCCCC2)cc1` was tested, and the GFP/RFP ratio change was inactive: 1.76%.
`O=c1[nH]c2ccccc2n1C1CCN(C(c2cc3ccccc3o2)c2nnnn2C2CCCC2)CC1` (configuration not stated) was tested, and the GFP/RFP ratio change was inactive: -1.92%.
With `CN1CCC(Nc2ccc(F)c(Cl)c2)CC1` the GFP/RFP ratio change was inactive: 1.04%.
With `CCOc1ncccc1C(=O)NCC1(N2CCOCC2)CCCCC1` the GFP/RFP ratio change was inactive: 0.472%.
`CN1CCC(Nc2ccc(Cl)cc2)CC1` was tested, and the GFP/RFP ratio change was inactive: -0.349%.
In the case of `COc1cccc(C(c2nnnn2C2CCCC2)N2CCC(n3c(=O)[nH]c4ccccc43)CC2)c1OC` (configuration not stated), the GFP/RFP ratio change is reported as inactive: 1.71%.
For `COc1cc(OC)cc(C(=O)NCC2(N3CCOCC3)CCCCC2)c1`, the GFP/RFP ratio change was inactive: 3.07%.
`COc1cccc(C(=O)N(c2cc(C)cc(C)c2)C2CCN(C(=O)OC(C)(C)C)CC2)c1` was tested, and the GFP/RFP ratio change was inactive: -5.31%.
For `CCC(CO)(C(=O)OC1CN2CCC1CC2)c1ccccc1` (configuration not stated), the GFP/RFP ratio change was inactive: -5.04%.
For `O=c1[nH]c2ccccc2n1C1CCN(C(c2cccs2)c2nnnn2C2CCCCC2)CC1` (configuration not stated), the GFP/RFP ratio change was inactive: 4.33%.
With `O=c1[nH]c2ccccc2n1C1CCN(C(c2ccnc3ccccc23)c2nnnn2C2CCCC2)CC1` (configuration not stated) the GFP/RFP ratio change was inactive: 0.862%.
For `COc1ccc(C(=O)NCC2(N3CCOCC3)CCCCC2)cc1OC`, the GFP/RFP ratio change was inactive: -0.0308%.
For `COc1cc(C(=O)NCC2(N3CCOCC3)CCCCC2)cc(OC)c1C`, the GFP/RFP ratio change was inactive: -3.82%.
`CCCCn1nnnc1C(c1ccccc1)N1CCC(n2c(=O)[nH]c3ccccc32)CC1` (configuration not stated) was tested, and the GFP/RFP ratio change was inactive: 3.55%.
`O=C(NCC1(N2CCOCC2)CCCCC1)c1cc(Br)ccc1Cl` was tested, and the GFP/RFP ratio change was inactive: 3.46%.
`O=c1[nH]c2ccccc2n1C1CCN(C(c2cccs2)c2nnnn2C2CCCC2)CC1` (configuration not stated) was tested, and the GFP/RFP ratio change was inactive: 0.939%.
With `O=C(OC1CN2CCC1CC2)C1c2ccccc2C=Cc2ccccc21` (configuration not stated) the GFP/RFP ratio change was inactive: -10.8%.
With `CCCCn1nnnc1C(c1cccc(OC)c1OC)N1CCC(n2c(=O)[nH]c3ccccc32)CC1` (configuration not stated) the GFP/RFP ratio change was inactive: -1.53%.
`COc1cccc(C(c2nnnn2C(C)(C)C)N2CCC(n3c(=O)[nH]c4ccccc43)CC2)c1OC` (configuration not stated) was tested, and the GFP/RFP ratio change was inactive: 3.58%.
In the case of `CCOC(=O)N1CCC(Nc2ccc(C)cc2)CC1`, the GFP/RFP ratio change is reported as inactive: 4.24%.
With `N/C(=N\O)c1c(N)no[n+]1[O-]` the GFP/RFP ratio change was inactive: -2.7%.
For `N#Cc1ccc(C(=O)NCC2(N3CCCCC3)CCCCC2)cc1`, the GFP/RFP ratio change was inactive: 2.35%.
`CC(C)(C)n1nnnc1C(c1cccc2ccccc12)N1CCC(n2c(=O)[nH]c3ccccc32)CC1` (configuration not stated) was tested, and the GFP/RFP ratio change was inactive: -2.48%.
For `CN(C)C1(CNC(=O)c2cccc(C#N)c2)CCCCC1`, the GFP/RFP ratio change was inactive: 2.36%.
With `CCCN1CCC(Nc2cc(OC)cc(OC)c2)CC1` the GFP/RFP ratio change was inactive: -0.704%.
For `O=c1[nH]c2ccccc2n1C1CCN(C(c2ccccc2)c2nnnn2C2CCCC2)CC1` (configuration not stated), the GFP/RFP ratio change was inactive: 1.06%.
`Cc1cc(N(CCCl)CCCl)ccc1C=O` was tested, and the GFP/RFP ratio change was inactive: 3.19%.
For `c1ccc(CN2CCC(Nc3ccccc3)CC2)cc1`, the GFP/RFP ratio change was inactive: -2.9%.
